Assay: IAM-HPLC chromatographic capacity factor (log k' IAM)
Type: physicochemical
Settings: IAM.PC.MG 12 µm column; isocratic ACN/0.035 M phosphate buffer pH 6.8 (30:70 v/v), 0.5 ml/min; k'=(Tr–T0)/T0; mean of 2–4 determinations
Description: Chromatographic analysis was performed using a Shimadzu LC 20A chromatograph coupled to a diode array detector, operated at a range of 210–260 nm, depending on the analyzed compound. A biomimetic commercially available column was used in all experiments: IAM. PC.MG12 µm (150 × 4.6 mm) was purchased from Regis Chemical Company (Morton Grove, IL).
OSC separation conditions under IAM-HPLC were adapted from [Luco et al. (2003]) and [Barbato et al. (1998]), with modifications. The chromatographic mode consisted in an isocratic elution used as the mobile phase ACN/0.035 M phosphate buffer −pH 6.8− (30:70 (v/v)) at 0.5 ml min^−1. The column dead time (T0) was estimated by ascorbic acid retention time which was measured at 210 nm. The obtained retention data were used to calculate the chromatographic parameter corresponding to the capacity factor k’ as follows: k’ = (Tr–T0)/T0. All capacity factors given represent the mean of 2–4 determinations of each sample solution.
For this study, we considered 28 phytochemical compounds containing sulfur-based groups. […] Most of these compounds are garlic-derived substances with bioactive functions. […] We chose them because of their bioactive functionality and their similar metabolism within the plants and human body. […]

Substance: (+)-S-allylcysteine sulfoxide [Alliin]
- Log (k'IAM): −1.710

— paper PMC8488277, “Permeability Data of Organosulfur Garlic Compounds Estimated by Immobilized Artificial Membrane Chromatography: Correlation Across Several Biological Barriers” (Frontiers in Chemistry, 2021)
